For this assay, the target named is T1, Suppressor of tumorigenicity 14 protein (Homo sapiens, UniProt Q9Y5Y6).
T1 sequence (Q9Y5Y6 whole entry): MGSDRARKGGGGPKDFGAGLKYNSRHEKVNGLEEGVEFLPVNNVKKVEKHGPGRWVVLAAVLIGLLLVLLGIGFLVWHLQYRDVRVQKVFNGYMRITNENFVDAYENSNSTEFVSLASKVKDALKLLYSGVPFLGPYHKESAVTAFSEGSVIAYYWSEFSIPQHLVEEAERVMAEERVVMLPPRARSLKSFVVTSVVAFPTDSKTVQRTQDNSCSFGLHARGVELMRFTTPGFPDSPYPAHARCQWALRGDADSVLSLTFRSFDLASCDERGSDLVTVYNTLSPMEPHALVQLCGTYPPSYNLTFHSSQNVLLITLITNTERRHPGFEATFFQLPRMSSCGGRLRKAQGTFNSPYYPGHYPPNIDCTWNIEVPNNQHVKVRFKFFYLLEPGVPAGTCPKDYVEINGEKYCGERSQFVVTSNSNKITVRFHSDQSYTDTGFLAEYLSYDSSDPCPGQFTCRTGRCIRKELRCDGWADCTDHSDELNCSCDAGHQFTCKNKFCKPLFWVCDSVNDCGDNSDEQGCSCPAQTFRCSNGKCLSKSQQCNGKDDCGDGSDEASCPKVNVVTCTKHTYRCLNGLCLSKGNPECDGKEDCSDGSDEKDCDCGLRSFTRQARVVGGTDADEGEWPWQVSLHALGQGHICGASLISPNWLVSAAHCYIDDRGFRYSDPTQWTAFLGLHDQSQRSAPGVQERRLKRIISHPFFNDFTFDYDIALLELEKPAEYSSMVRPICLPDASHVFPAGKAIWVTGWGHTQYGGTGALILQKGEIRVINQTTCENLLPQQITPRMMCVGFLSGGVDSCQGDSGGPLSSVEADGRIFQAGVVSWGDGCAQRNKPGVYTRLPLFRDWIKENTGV
Nature of the assay: Inhibition of matriptase (unknown origin).

The values that follow come from ChEMBL document CHEMBL4422663, “Suppression of Tumor Growth and Metastases by Targeted Intervention in Urokinase Activity with Cyclic Peptides” (J Med Chem, 2019).

Usually Ki stands for the dissociation constant of the complex between target and ligand, obtained from inhibition or displacement. Low values mean higher affinity, high ones lower affinity.

Compound `CCOC(=O)N1CCN(C(=O)[C@H](Cc2cccc(C(=N)N)c2)NS(=O)(=O)c2c(C(C)C)cc(C(C)C)cc2C(C)C)CC1` had a Ki of 370 nM.
